Test results reported in patent US6767887B1, “Exendin analogues, processes for their preparation and medicaments containing them” (Roche Diagnostics GmbH, priority 1999, dated 2004).

Target: T1, receptor for GLP-1-(7-36)-NH2 on B cells (clonal B cell line INS-1) (Rattus norvegicus, UniProt P32301)
T1 construct: endogenous in cells; host or cells: INS-1 cells (whole detached cells)
T1 sequence (P32301 22-463): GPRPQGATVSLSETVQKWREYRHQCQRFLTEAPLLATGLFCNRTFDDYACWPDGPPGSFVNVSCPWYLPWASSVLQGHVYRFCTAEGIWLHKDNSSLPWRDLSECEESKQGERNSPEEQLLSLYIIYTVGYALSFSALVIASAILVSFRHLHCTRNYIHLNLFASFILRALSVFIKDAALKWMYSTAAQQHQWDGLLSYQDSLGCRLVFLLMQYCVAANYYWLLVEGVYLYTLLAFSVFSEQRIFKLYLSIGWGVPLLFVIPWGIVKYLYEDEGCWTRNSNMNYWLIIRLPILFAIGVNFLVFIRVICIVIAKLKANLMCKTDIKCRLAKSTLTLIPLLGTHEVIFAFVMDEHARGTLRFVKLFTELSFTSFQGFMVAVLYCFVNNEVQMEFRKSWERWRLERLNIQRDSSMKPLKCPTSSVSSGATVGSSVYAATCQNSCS
Experiment: Competition with 125I-GLP1-(7-36)-NH2 on INS-1 cells (receptor affinity)
Format: binding
Conditions: competition with 125I-GLP1-(7-36)-NH2, INS-1 cells; read-out: Kd ± SD
Experimental: The detached cells are taken up and suspended in Krebs-Ringer buffer (25 mM Tris, 120 mM NaCl, 1.2 mM MgSO4, 5 mM KCl, 1 mM Na-EDTA, 15 mM CH3COONa adjusted to pH 7.4 and supplemented with 1% HSA and 0.1% bacitracin). […] Subsequently it is incubated for 30 minutes at 37° C., centrifuged for 4 minutes at 13,000 rpm, washed three times with buffer and the radioactivity bound to the pellet (γ-counter) is measured. Competition curves were obtained by incubation with 10 different dilutions of the peptide to be tested (10^−10-10^−6 M in Krebs-Ringer buffer).

Molecule `CCCC[C@H](NC(=O)[C@H](CCC(N)=O)NC(=O)[C@H](CCCCN)NC(=O)[C@H](CO)NC(=O)[C@H](CC(C)C)NC(=O)[C@H](CC(=O)O)NC(=O)[C@H](CO)NC(=O)[C@@H](NC(=O)[C@H](Cc1ccccc1)NC(=O)[C@@H](NC(=O)CNC(=O)[C@H](CC(=O)O)NC(=O)[C@H](CO)NC(=O)[C@@H](N)Cc1c[nH]cn1)[C@@H](C)O)[C@@H](C)O)C(=O)N[C@@H](CCC(=O)O)C(=O)N[C@@H](CCC(=O)O)C(=O)N[C@@H](CCC(=O)O)C(=O)N[C@@H](C)C(=O)N[C@H](C(=O)N[C@@H](CCCNC(=N)N)C(=O)N[C@@H](CC(C)C)C(=O)N[C@@H](Cc1ccccc1)C(=O)N[C@H](C(=O)N[C@@H](CCC(=O)O)C(=O)N[C@@H](Cc1c[nH]c2ccccc12)C(=O)N[C@@H](CC(C)C)C(=O)N[C@@H](CCCCN)C(=O)N[C@@H](CC(N)=O)C(=O)NCC(=O)N[C@@H](Cc1ccc(O)cc1)C(N)=O)[C@@H](C)CC)C(C)C` [compound 69] has a Kd of 0.56 ± 0.08 nM.
